# Laboratory results as given in publication PMC3072460 (The Journal of nutritional biochemistry, 2010).
# Chains of the proteins cited; added tags and fusions are not shown. Lines headed by an entry give the natural chain unless they say otherwise; changes in a name come on top.
# UniProt P43116: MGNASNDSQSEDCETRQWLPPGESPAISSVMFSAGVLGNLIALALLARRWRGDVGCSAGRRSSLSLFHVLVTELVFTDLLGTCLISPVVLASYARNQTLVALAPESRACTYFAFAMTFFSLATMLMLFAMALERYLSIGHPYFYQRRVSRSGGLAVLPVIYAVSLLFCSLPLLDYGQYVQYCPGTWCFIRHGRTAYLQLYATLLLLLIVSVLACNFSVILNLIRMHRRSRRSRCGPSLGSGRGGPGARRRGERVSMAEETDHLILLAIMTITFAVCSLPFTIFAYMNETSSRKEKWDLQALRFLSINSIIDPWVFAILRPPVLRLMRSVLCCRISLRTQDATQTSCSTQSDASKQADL
# Molecular target: prostanoid EP2 receptor (Homo sapiens, UniProt P43116)
# Experiment: radioligand competition with 3H-PGE2 on transfected whole cells
# Format: cell-based
compound,measurement,value
CCCCC[C@H](O)/C=C/[C@H]1[C@H](O)CC(=O)[C@@H]1C/C=C\CCCC(=O)O [PGE2],EC50,62 nM
